Columns and labels:
Format in all cases: physicochemical
[1] = Multilayered coated panels, accelerated weathering: 20 degree gloss retention; conditions: after 3536 hours Xenon Arc accelerated weathering (SAE J2527); UV absorber 2.5 wt % in 2-part polyurethane clear top coat on white base coat
Protocol: (§1) Example 10. Stabilized 2-Part Solvent-borne Polyurethane Glossy Clear Top Coat. A glossy stabilized clear top coat was prepared of the formulation below. The UV absorbers were added to the formulation at 2.5 wt % relative to total resin solids.
Example 11. Stabilized 2-Part Solvent-borne Polyurethane Glossy Clear Top Coat. A glossy stabilized clear top coat was prepared of the formulation below. The UV absorber was added at 2.5 wt % relative to total resin solids, and the hindered amine light stabilizer (HALS) was added at 1.5 wt % relative to total resin solids. The HALS was a mixture of bis (1,2,2,6,6-pentamethyl-4-piperidyl) sebacate and methyl-1,2,2,6,6-pentamethyl-4-piperidyl sebacate (“HALS 1”); bis(1-octyloxy-2,2,6,6-tetramethylpiperidin-4-yl) sebacate (“HALS 2”); or 2,4-bis[(1-cyclohexyloxy-2,2,6,6-tetramethylpiperidin-4-yl)butylamino]-6-(2-hydroxyethylamino-s-triazine (“HALS 3”).
Example 12. Multilayered Coated Panel Preparation. Aluminum test panels from ACT Test Panels LLC were purchased having a white base coat (coil coat) and no clear top coat. The panels were cut to a size of about 3 inches by 6 inches. […] Initial CIE Lab color values, 20 degree gloss, and 60 degree gloss were measured. […]

[2] = Multilayered coated panels, accelerated weathering: color change (ΔE); conditions: after 6000 hours Xenon Arc accelerated weathering (SAE J2527); UV absorber 2.5 wt % in 2-part polyurethane clear top coat on white base coat
Protocol: as §1
Example 11. Stabilized 2-Part Solvent-borne Polyurethane Glossy Clear Top Coat. A glossy stabilized clear top coat was prepared of the formulation below. The UV absorber was added at 2.5 wt % relative to total resin solids, and the hindered amine light stabilizer (HALS) was added at 1.5 wt % relative to total resin solids. […]
Example 12. […] Initial CIE Lab color values, 20 degree gloss, and 60 degree gloss were measured. […]
Initial color measurements were taken using the above parameters. The L, a, and b values were calculated using the CIE system from the reflectance values. ΔE was calculated from the L, a, and b values. Subsequent measurements were taken at specified intervals. ΔL, a, and b values were the difference between the initial values and the values at each interval. ΔE was calculated as follows: [(ΔL)^2+(Δa)^2+(Δb)^2][…]=ΔE. […]

[3] = UV absorber solubility in UV curable coating composition (Example 8); conditions: approximate maximum concentration with no sign of crystallization; coating similar to Pourreau, RadTech Report 2004, Table 5
Protocol: Example 8. UV Absorber Solubility in UV Curable Coating Compositions. To measure this solubility, a number of structurally different UV absorbers were added to a typical UV curable coating composition similar to that as described by D. B. Pourreau “UV-Curable Acrylic Urethane Clearcoats for Automotive Applications,” RadTech Report, November/December, 2004, Table 5, p. 66. The test UV absorber was added to the UV curable coating composition at various concentrations. The resulting solution was placed into individual containers and sealed. Solubility was then evaluated based upon observed crystallization in the solvent. Observations started after several hours and then continued over a period of several weeks.
The solubility values given in Table 1, below, are approximate maximum concentrations where no sign of subsequent crystallization was evident. Solubilities are reported in weight percent of total UV absorber added to UV curable coating formulation. From the data in Table 1, it is clear that the inventive triazine UV absorbers are considerably more soluble in UV curable coating formulations than other triazine UV absorbers of the prior art. The use of many UV absorbers in coatings has been limited by solubility and compatibility of some UV absorber compounds. […]

Substance | 20 degree gloss retention [1] [%] | Delta E [2] | Solubility in UV Curable Coating [3] [wt %]
2-[4,6-bis(2,4-dimethylphenyl)-1,3,5-triazin-2-yl]-5-[2-hydroxy-3-(2-methylbutoxy)propoxy]phenol and regioisomer [Example 3, reference compound] | 69.9 | 2.68 | ~2
2-[4,6-bis(4-phenylphenyl)-1,3,5-triazin-2-yl]-5-(2-hydroxypropoxy)phenol (“UVA-1”) and 2-[4,6-bis(4-phenylphenyl)-1,3,5-triazin-2-yl]-5-(2-hydroxy-1-methyl-ethoxy)phenol (“UVA-2”) [Example 1] | 85.2 | 1.70 | –

From patent US12686788B2, “Coating compositions having covalently bound ultraviolet absorbers” (BASF SE, priority 2017, dated 2026)
